In patent US20210308196A1, “COMPOSITIONS AND METHODS TO PROMOTE HOST DEFENSE AND STIMULATE, EXPAND, AND/OR RESET T CELL REPERTOIRES” (EVOLVE BIOSYSTEMS, INC., priority 2018, published 2021):

Test: Bacterial growth and oligosaccharide use in HMO, LNnT or FOS media (growth curves, HPLC)
Conditions: after 48 hours of growth
Method: Little is known about the anti-inflammatory effects B. infantis-derived metabolites have on intestinal epithelial cells and how they might protect and maintain mucosal integrity in the infant gut. To investigate whether metabolites from B. infantis grown on HMO and synthetic HMOs can provide protective effects against pathogen-induced inflammation and maintain mucosal integrity compared to other commensal strains that have been previously characterized. B. infantis, B. breve, B. bifidum, and B. longum were grown in media containing pooled HMOs, synthetic Lacto-N-neotetraose (LNnT), or fructo-oligosaccharide (FOS, a readily available oligosaccharide commonly used in baby formulas). Four Lactobacillus plantarum strains were also grown in HMO, LNnT, and FOS media. Spent supernatant was collected and filtered after 48 hours of growth (when the bacteria reached the stationary phase) and evaluated for the remaining oligosaccharide concentration. […] After overnight incubation, cell supernatant was analyzed by ELISA for reductions in pro-inflammatory cytokines, including IL-8 and TNF-alpha. […]

In the case of “Bifidobacterium longum subsp. infantis EVC001 [B. infantis EVC001]”, the “Pooled or synthetic HMOs remaining in the spent supernatant (HPLC)” value is reported as “very low concentrations”.
